Measurements published in patent US20220289765A1, “CRYSTAL OF CARCINOGENIC FUSED KINASE INHIBITOR AND APPLICATIONS THEREOF” (Simcere Pharmaceutical Co., Ltd., priority 2019, published 2022).

Chains of the proteins cited; added tags and fusions are not shown. Residues count along the entry.
UniProt P08922, 28-2347 G2032R: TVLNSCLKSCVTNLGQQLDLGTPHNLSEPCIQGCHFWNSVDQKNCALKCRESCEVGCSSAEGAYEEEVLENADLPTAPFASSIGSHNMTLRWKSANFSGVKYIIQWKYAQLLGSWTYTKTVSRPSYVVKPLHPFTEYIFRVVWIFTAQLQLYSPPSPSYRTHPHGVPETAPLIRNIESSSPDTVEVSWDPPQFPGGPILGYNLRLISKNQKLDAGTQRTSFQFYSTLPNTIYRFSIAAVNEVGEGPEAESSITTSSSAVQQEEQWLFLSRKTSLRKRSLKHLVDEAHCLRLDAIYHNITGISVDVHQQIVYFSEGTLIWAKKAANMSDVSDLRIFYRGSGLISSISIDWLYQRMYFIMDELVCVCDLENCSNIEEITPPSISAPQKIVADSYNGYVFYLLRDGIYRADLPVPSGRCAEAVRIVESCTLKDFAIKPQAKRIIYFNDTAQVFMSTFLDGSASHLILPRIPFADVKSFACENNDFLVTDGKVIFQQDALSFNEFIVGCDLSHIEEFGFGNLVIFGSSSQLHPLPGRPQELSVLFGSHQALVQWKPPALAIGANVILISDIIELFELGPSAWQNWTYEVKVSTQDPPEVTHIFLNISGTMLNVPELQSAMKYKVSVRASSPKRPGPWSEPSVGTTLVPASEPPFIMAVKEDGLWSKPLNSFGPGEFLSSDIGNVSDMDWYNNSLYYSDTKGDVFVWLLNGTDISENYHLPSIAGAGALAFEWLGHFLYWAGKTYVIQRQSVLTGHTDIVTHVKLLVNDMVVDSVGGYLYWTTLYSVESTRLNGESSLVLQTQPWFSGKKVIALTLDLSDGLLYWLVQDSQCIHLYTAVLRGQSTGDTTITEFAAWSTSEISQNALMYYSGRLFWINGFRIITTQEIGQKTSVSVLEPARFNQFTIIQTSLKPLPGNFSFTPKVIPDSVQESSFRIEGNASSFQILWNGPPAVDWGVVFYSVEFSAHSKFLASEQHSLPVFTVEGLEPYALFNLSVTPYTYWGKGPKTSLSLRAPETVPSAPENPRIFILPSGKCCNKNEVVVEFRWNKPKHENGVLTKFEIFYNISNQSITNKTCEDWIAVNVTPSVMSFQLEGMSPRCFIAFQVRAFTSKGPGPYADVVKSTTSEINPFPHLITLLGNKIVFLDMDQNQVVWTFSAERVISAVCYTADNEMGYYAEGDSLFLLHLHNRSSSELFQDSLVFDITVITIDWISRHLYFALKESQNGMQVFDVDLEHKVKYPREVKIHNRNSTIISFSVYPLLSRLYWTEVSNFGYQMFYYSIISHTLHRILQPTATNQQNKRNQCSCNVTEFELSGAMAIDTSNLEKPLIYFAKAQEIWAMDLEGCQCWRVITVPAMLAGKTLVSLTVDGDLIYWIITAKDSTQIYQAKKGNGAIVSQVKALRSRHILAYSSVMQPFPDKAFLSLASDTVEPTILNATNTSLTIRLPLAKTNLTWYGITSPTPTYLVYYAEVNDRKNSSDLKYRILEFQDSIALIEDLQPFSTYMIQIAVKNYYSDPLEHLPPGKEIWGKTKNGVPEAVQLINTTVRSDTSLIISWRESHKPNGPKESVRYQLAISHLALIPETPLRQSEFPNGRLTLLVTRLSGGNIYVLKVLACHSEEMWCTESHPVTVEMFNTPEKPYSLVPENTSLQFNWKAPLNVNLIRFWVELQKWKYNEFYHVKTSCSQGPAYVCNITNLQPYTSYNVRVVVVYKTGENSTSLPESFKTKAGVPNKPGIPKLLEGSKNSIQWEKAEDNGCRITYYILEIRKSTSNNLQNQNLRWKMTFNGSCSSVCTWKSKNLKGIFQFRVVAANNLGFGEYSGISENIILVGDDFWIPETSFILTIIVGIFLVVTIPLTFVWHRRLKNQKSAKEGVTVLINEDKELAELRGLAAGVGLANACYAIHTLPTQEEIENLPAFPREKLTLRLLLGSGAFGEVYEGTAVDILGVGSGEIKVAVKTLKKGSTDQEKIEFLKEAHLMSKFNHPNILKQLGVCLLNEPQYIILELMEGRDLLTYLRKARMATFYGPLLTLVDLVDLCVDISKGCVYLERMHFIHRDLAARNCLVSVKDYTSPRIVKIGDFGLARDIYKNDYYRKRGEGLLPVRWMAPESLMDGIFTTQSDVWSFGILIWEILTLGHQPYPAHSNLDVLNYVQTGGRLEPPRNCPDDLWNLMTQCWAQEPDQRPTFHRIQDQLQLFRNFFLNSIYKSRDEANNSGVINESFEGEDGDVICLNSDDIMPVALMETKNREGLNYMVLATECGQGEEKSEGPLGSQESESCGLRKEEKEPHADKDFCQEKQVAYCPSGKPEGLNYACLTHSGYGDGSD

Molecular target: T1, Ros-G2032R (Homo sapiens, UniProt P08922, G2032R)
T1 construct: purchased Reaction Biology Corp
Experiment: Kinase inhibitory activity (33P-ATP filtration-binding, Reaction Biology Corp.)
Assay type: biochemical
Conditions: read-out: Half Inhibitory Concentrations of Kinases IC50, Ros-G2032R

In the case of `C[C@@H]1CCc2ncc(F)cc2[C@H]2CCCN2c2ccn3ncc(c3n2)C(=O)N1` [LOXO-195, reference compound], the IC50 is reported as 2.88 nM.
